Assay results as given in patent US11542261B2, “Substituted Imidazo[1,2-a]-pyridines as IRAK 1/4 and FLT3 inhibitors” (CHILDREN'S HOSPITAL MEDICAL CENTER, priority 2016, dated 2023).

Test system: MLL-AF9 FLT3-ITD cells
Conditions: read-out: IC50 of Venetoclax in the presence of 0.2 nM 1481

Compound: CC1(C)CCC(CN2CCN(c3ccc(C(=O)NS(=O)(=O)c4ccc(NCC5CCOCC5)c([N+](=O)[O-])c4)c(Oc4cnc5[nH]ccc5c4)c3)CC2)=C(c2ccc(Cl)cc2)C1 [Venetoclax, venetoclax]
- IC50: 63.8 nM
